One compound from patent US9757455B2, “Oral therapeutic compound delivery system” (Johnson & Johnson Consumer Inc., priority 2005, dated 2017) can be followed below.

SMILES strings stand for the structures.

This data set is described as follows: Dissolution, USP dissolution apparatus 2, 900 mL 0.0033 N hydrochloric acid, 0 rpm, 37° C. The data set is classed as physicochemical. The conditions noted are these: basic and amphoteric drugs in formulations according to the invention (Table 32), 300 sec.

As for `CN(C)CCc1c[nH]c2ccc(Cn3cncn3)cc12` [Rizatriptan benzoate], the “% dissolved in 900 mL 0.0033 N HCl” value amounted to 102%.
